Patent US10287286B2, “Compounds” (Takeda Pharmaceutical Company Limited, priority 2015, dated 2019)

Sequences of proteins named here, by UniProt entry; tags and fusion partners are left off.
UniProt Q96KS0, whole entry: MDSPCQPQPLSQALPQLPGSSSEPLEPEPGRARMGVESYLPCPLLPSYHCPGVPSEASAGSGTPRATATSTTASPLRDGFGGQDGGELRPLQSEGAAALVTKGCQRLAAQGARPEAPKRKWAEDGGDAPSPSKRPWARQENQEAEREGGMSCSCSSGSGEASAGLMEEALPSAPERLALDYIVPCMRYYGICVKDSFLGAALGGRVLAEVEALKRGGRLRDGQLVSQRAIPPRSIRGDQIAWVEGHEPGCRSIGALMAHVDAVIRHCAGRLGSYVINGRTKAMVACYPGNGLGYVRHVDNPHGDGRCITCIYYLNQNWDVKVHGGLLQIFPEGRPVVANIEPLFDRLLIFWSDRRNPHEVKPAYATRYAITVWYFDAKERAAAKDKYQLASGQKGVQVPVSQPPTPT

Target: PHD1 enzyme (residues 1-407) (Homo sapiens (Human), UniProt Q96KS0)
Test: PHD1 Enzyme Assay (UPLC-MS detection of hydroxylated peptide product)
Assay type: biochemical
Details: 20 nM, 60 min pre-incubation at room temperature

| IC50 [nM] | Compound |
| --- | --- |
| 2450 | CC1CCC(C)N1c1cc(-c2ccc(C#N)cc2)n2ncnc2n1 (stereo not drawn) [Example 91, 4-[5-(2,5-dimethylpyrrolidin-1-yl)-[1,2,4]triazolo[1,5-a]pyrimidin-7-yl]benzonitrile] |
| 792 | CC1(C)CCN(c2cc(-c3ccc(C#N)cc3)n3ncnc3n2)C1 [Example 92, 4-[5-(3,3-dimethylpyrrolidin-1-yl)-[1,2,4]triazolo[1,5-a]pyrimidin-7-yl]benzonitrile] |
| 129 | N#Cc1ccc(-c2cc(N3CCCC3C3CC3)nc3ncnn23)cc1 (stereo not drawn) [Example 93, 4-[5-(2-cyclopropylpyrrolidin-1-yl)-[1,2,4]triazolo[1,5-a]pyrimidin-7-yl]benzonitrile] |
| 238 | CC(C)CC1CCCN1c1cc(-c2ccc(C#N)cc2)n2ncnc2n1 (stereo not drawn) [Example 94, 4-{5-[2-(2-methylpropyl)pyrrolidin-1-yl]-[1,2,4]triazolo[1,5-a]pyrimidin-7-yl}benzonitrile] |
| 61 | CC(C)CCNc1cc(-c2ccc(C#N)cc2)n2ncnc2n1 [Example 95, 4-{5-[(3-methylbutyl)amino]-[1,2,4]triazolo[1,5-a]pyrimidin-7-yl}benzonitrile] |
| 32 | N#Cc1ccc(-c2cc(NC3CC3)nc3ncnn23)cc1 [Example 96, 4-[5-(cyclopropylamino)-[1,2,4]triazolo[1,5-a]pyrimidin-7-yl]benzonitrile] |
| 115 | CC(C)CC1CCN(c2cc(-c3ccc(C#N)cc3)n3ncnc3n2)C1 (stereo not drawn) [Example 97, 4-{5-[3-(2-methylpropyl)pyrrolidin-1-yl]-[1,2,4]triazolo[1,5-a]pyrimidin-7-yl}benzonitrile] |
| 427 | N#Cc1ccc(-c2cc(N3CCC4(CCC4)CC3)nc3ncnn23)cc1 [Example 98, 4-(5-{7-azaspiro[3.5]nonan-7-yl}-[1,2,4]triazolo[1,5-a]pyrimidin-7-yl)benzonitrile] |
| 435 | CN(c1cc(-c2ccc(C#N)cc2)n2ncnc2n1)C1CC1 [Example 99, 4-{5-[cyclopropyl(methyl)amino]-[1,2,4]triazolo[1,5-a]pyrimidin-7-yl}benzonitrile] |
| 9 | N#Cc1ccc(-c2cc(NCC3CC3)cc3ncnn23)cc1 [Example 101, 4-{7-[(cyclopropylmethyl)amino]-[1,2,4]triazolo[1,5-a]pyridin-5-yl}benzonitrile] |
| 34 | COCCNc1cc(-c2ccc(C#N)cc2)n2ncnc2c1 [Example 102] |
| 37 | N#Cc1ccc(-c2cc(NCC3CCOCC3)cc3ncnn23)cc1 [Example 104, 4-{7-[(oxan-4-ylmethyl)amino]-[1,2,4]triazolo[1,5-a]pyridin-5-yl}benzonitrile] |
| 25 | N#Cc1ccc(-c2cc(NCC3CCOC3)cc3ncnn23)cc1 (stereo not drawn) [Example 105, 4-{7-[(oxolan-3-ylmethyl)amino]-[1,2,4]triazolo[1,5-a]pyridin-5-yl}benzonitrile] |
| 10 | N#Cc1ccc(-c2cc(NCC(F)F)cc3ncnn23)cc1 [Example 106, 4-{7-[(2,2-difluoroethyl)amino]-[1,2,4]triazolo[1,5-a]pyridin-5-yl}benzonitrile] |
| 5 | N#Cc1ccc(-c2cc(NCC3COC3)cc3ncnn23)cc1 [Example 107, 4-{7-[(oxetan-3-ylmethyl)amino]-[1,2,4]triazolo[1,5-a]pyridin-5-yl}benzonitrile] |
| 9 | N#Cc1ccc(-c2cc(NCCC(F)(F)F)cc3ncnn23)cc1 [Example 108, 4-{7-[(3,3,3-trifluoropropyl)amino]-[1,2,4]triazolo[1,5-a]pyridin-5-yl}benzonitrile] |
| 77 | N#Cc1ccc(-c2cc(NCCCN3CCOCC3)cc3ncnn23)cc1 [Example 109, 4-(7-{[3-(morpholin-4-yl)propyl]amino}-[1,2,4]triazolo[1,5-a]pyridin-5-yl)benzonitrile] |
| 166 | CC(C)(O)CNc1cc(-c2ccc(C#N)cc2)n2ncnc2c1 [Example 110, 4-{7-[(2-hydroxy-2-methylpropyl)amino]-[1,2,4]triazolo[1,5-a]pyridin-5-yl}benzonitrile] |
| 247 | COCCCNc1cc(-c2ccc(C#N)cc2)n2ncnc2c1 [Example 111, 4-{7-[(3-methoxypropyl)amino]-[1,2,4]triazolo[1,5-a]pyridin-5-yl}benzonitrile] |
| 20 | N#Cc1ccc(-c2cc(NCC3CCCO3)cc3ncnn23)cc1 (stereo not drawn) [Example 112, 4-{7-[(oxolan-2-ylmethyl)amino]-[1,2,4]triazolo[1,5-a]pyridin-5-yl}benzonitrile] |
| 8 | CN(C)CCNc1cc(-c2ccc(C#N)cc2)n2ncnc2c1 [Example 113, 4-(7-{[2-(dimethylamino)ethyl]amino}-[1,2,4]triazolo[1,5-a]pyridin-5-yl)benzonitrile] |
| 33 | N#Cc1ccc(-c2cc(NCc3ccccc3)cc3ncnn23)cc1 [Example 114, 4-[7-(benzylamino)-[1,2,4]triazolo[1,5-a]pyridin-5-yl]benzonitrile] |
| 13 | N#Cc1ccc(-c2cc(NCc3ccccc3F)cc3ncnn23)cc1 [Example 115, 4-(7-{[(2-fluorophenyl)methyl]amino}-[1,2,4]triazolo[1,5-a]pyridin-5-yl)benzonitrile] |
| 29 | N#Cc1ccc(-c2cc(NCc3cccc(F)c3)cc3ncnn23)cc1 [Example 116, 4-(7-{[(3-fluorophenyl)methyl]amino}-[1,2,4]triazolo[1,5-a]pyridin-5-yl)benzonitrile] |
| 5 | N#Cc1ccc(-c2cc(NCc3ccc(F)cc3)cc3ncnn23)cc1 [Example 117, 4-(7-{[(4-fluorophenyl)methyl]amino}-[1,2,4]triazolo[1,5-a]pyridin-5-yl)benzonitrile] |
| 54 | N#Cc1ccc(-c2cc(OCC3CC3)cc3ncnn23)cc1 [Example 118, 4-[7-(cyclopropylmethoxy)-[1,2,4]triazolo[1,5-a]pyridin-5-yl]benzonitrile] |
| 70 | N#Cc1ccc(-c2cc(NC(=O)C3CC3)cc3ncnn23)cc1 [Example 122, N-[5-(4-cyanophenyl)-[1,2,4]triazolo[1,5-a]pyridin-7-yl]cyclopropanecarboxamide] |

Second part, the compound before the results:

| Compound | IC50 [nM] |
| --- | --- |
| CN(C)C1CCN(c2cc(-c3ccc(C#N)cc3)n3ncnc3n2)C1 (stereo not drawn) [Example 73, 4-{5-[3-(dimethylamino)pyrrolidin-1-yl]-[1,2,4]triazolo[1,5-a]pyrimidin-7-yl}benzonitrile] | 5440 |
| CNC(=O)C1CCCN1c1cc(-c2ccc(C#N)cc2)n2ncnc2n1 (stereo not drawn) [Example 74, 1-[7-(4-cyanophenyl)-[1,2,4]triazolo[1,5-a]pyrimidin-5-yl]-N-methylpyrrolidine-2-carboxamide] | 184 |
| N#Cc1ccc(-c2cc(N3CCC[C@H]3CN3CCCC3)nc3ncnn23)cc1 [Example 75, 4-{5-[(2S)-2-(pyrrolidin-1-ylmethyl)pyrrolidin-1-yl]-[1,2,4]triazolo[1,5-a]pyrimidin-7-yl}benzonitrile] | 2160 |
| N#Cc1ccc(-c2cc(N3CCCC(N4CCCC4)C3)nc3ncnn23)cc1 (stereo not drawn) [Example 76, 4-{5-[3-(pyrrolidin-1-yl)piperidin-1-yl]-[1,2,4]triazolo[1,5-a]pyrimidin-7-yl}benzonitrile] | 969 |
| CN1CCC(Nc2cc(-c3ccc(C#N)cc3)n3ncnc3n2)CC1 [Example 77, 4-{5-[(1-methylpiperidin-4-yl)amino]-[1,2,4]triazolo[1,5-a]pyrimidin-7-yl}benzonitrile] | 2040 |
| CN1CCCC(Nc2cc(-c3ccc(C#N)cc3)n3ncnc3n2)C1 (stereo not drawn) [Example 78, 4-{5-[(1-methylpiperidin-3-yl)amino]-[1,2,4]triazolo[1,5-a]pyrimidin-7-yl}benzonitrile] | 1830 |
| CC(=O)N1CCCC(Nc2cc(-c3ccc(C#N)cc3)n3ncnc3n2)C1 (stereo not drawn) [Example 79, 4-{5-[(1-acetylpiperidin-3-yl)amino]-[1,2,4]triazolo[1,5-a]pyrimidin-7-yl}benzonitrile] | 275 |
| CN1CCC(CNc2cc(-c3ccc(C#N)cc3)n3ncnc3n2)CC1 [Example 80, 4-(5-{[(1-methylpiperidin-4-yl)methyl]amino}-[1,2,4]triazolo[1,5-a]pyrimidin-7-yl)benzonitrile] | 3000 |
| N#Cc1ccc(-c2cc(NCCN3CCCC3=O)nc3ncnn23)cc1 [Example 81, 4-(5-{[2-(2-oxopyrrolidin-1-yl)ethyl]amino}-[1,2,4]triazolo[1,5-a]pyrimidin-7-yl)benzonitrile] | 884 |
| CN(C)c1cc(-c2ccc(C#N)cc2)n2ncnc2n1 [Example 82, 4-[5-(dimethylamino)-[1,2,4]triazolo[1,5-a]pyrimidin-7-yl]benzonitrile] | 11 |
| N#Cc1ccc(-c2cc(N3CCCC3)nc3ncnn23)cc1 [Example 83, 4-[5-(pyrrolidin-1-yl)-[1,2,4]triazolo[1,5-a]pyrimidin-7-yl]benzonitrile] | 406 |
| N#Cc1ccc(-c2cc(NCC3CC3)nc3ncnn23)cc1 [Example 84, 4-{5-[(cyclopropylmethyl)amino]-[1,2,4]triazolo[1,5-a]pyrimidin-7-yl}benzonitrile] | 5 |
| CN(CC1CC1)c1cc(-c2ccc(C#N)cc2)n2ncnc2n1 [Example 85, 4-{5-[(cyclopropylmethyl)(methyl)amino]-[1,2,4]triazolo[1,5-a]pyrimidin-7-yl}benzonitrile] | 164 |
| N#Cc1ccc(-c2cc(NCCN3CCCC3)nc3ncnn23)cc1 [Example 86, 4-(5-{[2-(pyrrolidin-1-yl)ethyl]amino}-[1,2,4]triazolo[1,5-a]pyrimidin-7-yl)benzonitrile] | 2110 |
| CN(C)CCN(C)c1cc(-c2ccc(C#N)cc2)n2ncnc2n1 [Example 87] | 119 |
| CN(C)CCCNc1cc(-c2ccc(C#N)cc2)n2ncnc2n1 [Example 88, 4-(5-{[3-(dimethylamino)propyl]amino}-[1,2,4]triazolo[1,5-a]pyrimidin-7-yl)benzonitrile] | 29 |
| CC1CCCN1c1cc(-c2ccc(C#N)cc2)n2ncnc2n1 (stereo not drawn) [Example 89, 4-[5-(2-methylpyrrolidin-1-yl)-[1,2,4]triazolo[1,5-a]pyrimidin-7-yl]benzonitrile] | 360 |
| CC1CCN(c2cc(-c3ccc(C#N)cc3)n3ncnc3n2)C1 (stereo not drawn) [Example 90, 4-[5-(3-methylpyrrolidin-1-yl)-[1,2,4]triazolo[1,5-a]pyrimidin-7-yl]benzonitrile] | 574 |
